Results: ChEMBL document CHEMBL5042543, “Bridged Piperidine Analogues of a High Affinity Naphthalene-Based P2Y14R Antagonist” (J Med Chem, 2022)
Values after ≈ are worked out from the molar mass of the structure shown.

Assays:
[1] = biological target: T1, P2Y purinoceptor 14 (Homo sapiens, UniProt Q15391); assay: cell-based
T1 sequence (Q15391 whole entry): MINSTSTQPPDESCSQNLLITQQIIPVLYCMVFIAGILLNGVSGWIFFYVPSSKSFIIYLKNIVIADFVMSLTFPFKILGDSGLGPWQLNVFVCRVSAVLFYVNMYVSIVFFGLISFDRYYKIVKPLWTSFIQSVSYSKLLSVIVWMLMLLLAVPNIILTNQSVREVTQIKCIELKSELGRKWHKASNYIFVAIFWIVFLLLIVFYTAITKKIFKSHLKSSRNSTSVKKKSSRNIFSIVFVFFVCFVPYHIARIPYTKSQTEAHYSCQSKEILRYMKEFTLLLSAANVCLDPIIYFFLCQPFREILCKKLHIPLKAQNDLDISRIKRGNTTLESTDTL

[2] = Aqueous solubility of the compound at pH 7.4; details: buffer

## O=C(O)c1cc(-c2cc(C34CCN(CC3)CC4)ccc2Br)c2ccc(-c3ccc(C(F)(F)F)cc3)cc2c1
[1]
  IC50: 8900 nM

## O=C(O)c1cc(-c2ccc([C@@]3(O)C[C@H]4CC[C@@H](C3)N4)cc2)c2ccc(-c3ccc(C(F)(F)F)cc3)cc2c1
[1]
  IC50: 117 nM
[2]
  solubility: 0.75 µg/mL (≈ 1.45 µM)

## O=C(O)c1cc(-c2ccc(C3(O)[C@H]4CC[C@H]3CN(Cc3ccccc3)C4)cc2)c2ccc(-c3ccc(C(F)(F)F)cc3)cc2c1 (some centres undefined)
[1]
  IC50: 466 nM
